## CycPeptMPDB entries from one study

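The data file gives no further conditions (lipid, pH, time, direction or concentration), and values from different papers need not be comparable. The list need not hold all peptides of the study. Peptides that the database sets to -10, its floor, are left out.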

PAMPA measures passive passage through an artificial lipid membrane.
P is given in units of 10^-6 cm/s (from log10 values with two decimals); larger means faster passage.

- CC(C)C[C@@H]1NC(=O)[C@H](C)N(C)C(=O)[C@H](Cc2ccccc2)NC(=O)[C@@H](CC(C)C)NC(=O)[C@@H]2CCCN2C(=O)[C@@H](CC(C)C)NC1=O: PAMPA 2.5 × 10^-6 cm/s
- CCCN1CC(=O)N(C)[C@@H](CC(C)C)C(=O)N(C)[C@H](CC(C)C)C(=O)N2CCC[C@@H]2C(=O)N(C)[C@H](CC(C)C)C(=O)N[C@@H](Cc2ccccc2)C1=O: PAMPA 7.4 × 10^-6 cm/s
- CCCN1CC(=O)N(Cc2ccccc2)CC(=O)N(C)[C@H](CC(C)C)C(=O)N2CCC[C@H]2C(=O)N(C)[C@H](CC(C)C)C(=O)N[C@@H](Cc2ccccc2)C(=O)N2CCC[C@@H]2C1=O: PAMPA 2.7 × 10^-6 cm/s
- CCCN1CC(=O)N(C)[C@H](CC(C)C)C(=O)N[C@H](CC(C)C)C(=O)N2CCC[C@H]2C(=O)N(Cc2ccccc2)CC(=O)N[C@@H](Cc2ccccc2)C(=O)N2CCC[C@H]2C1=O: PAMPA 6.2 × 10^-6 cm/s
- CC(C)C[C@@H]1NC(=O)[C@H](C)NC(=O)[C@@H]2CCCN2C(=O)[C@H](Cc2ccccc2)NC(=O)CN(Cc2ccccc2)C(=O)[C@@H]2CCCN2C(=O)[C@H](CC(C)C)NC1=O: PAMPA 2.5 × 10^-6 cm/s
- CC(C)C[C@@H]1NC(=O)[C@@H]2CCCN2C(=O)[C@H](CC(C)C)NC(=O)[C@@H](CC(C)C)N(C)C(=O)C[C@H](Cc2ccccc2)NC(=O)[C@H](Cc2ccccc2)NC1=O: PAMPA 2.1 × 10^-6 cm/s
- CCCN1CC(=O)N(C)[C@H](CC(C)C)C(=O)N(Cc2ccccc2)CC(=O)N2CCC[C@@H]2C(=O)N[C@@H](CC(C)C)C(=O)N[C@@H](Cc2ccccc2)C(=O)N2CCC[C@H]2C1=O: PAMPA 0.089 × 10^-6 cm/s
- CC(C)C[C@@H]1C(=O)N[C@@H](Cc2ccccc2)C(=O)N2CCC[C@H]2C(=O)N[C@@H](C)C(=O)N(C)[C@@H](CC(C)C)C(=O)N[C@H](CC(C)C)C(=O)N2CCC[C@@H]2C(=O)N1C: PAMPA 1.9 × 10^-6 cm/s
- CC(C)C[C@@H]1C(=O)N[C@H](CC(C)C)C(=O)N2CCC[C@@H]2C(=O)N(C)[C@H](CC(C)C)C(=O)N[C@@H](Cc2ccccc2)C(=O)N[C@@H](Cc2ccccc2)CC(=O)N1C: PAMPA 8.1 × 10^-6 cm/s
- CC(C)C[C@@H]1C(=O)N[C@@H](Cc2ccccc2)C(=O)N(C)[C@@H](C)C(=O)N[C@H](CC(C)C)C(=O)N(Cc2ccccc2)CC(=O)N2CCC[C@@H]2C(=O)N1C: PAMPA 4.5 × 10^-6 cm/s
- CC(C)C[C@@H]1C(=O)N[C@@H](Cc2ccccc2)C(=O)N2CCC[C@H]2C(=O)N[C@H](C)C(=O)N[C@H](CC(C)C)C(=O)N(C)[C@@H](CC(C)C)C(=O)N2CCC[C@H]2C(=O)N1C: PAMPA 0.81 × 10^-6 cm/s
- CCCN1CC(=O)N[C@H](CC(C)C)C(=O)N(Cc2ccccc2)CC(=O)N2CCC[C@@H]2C(=O)N(C)[C@H](CC(C)C)C(=O)N[C@@H](Cc2ccccc2)C(=O)N2CCC[C@H]2C1=O: PAMPA 1.8 × 10^-6 cm/s

A selection of 2 entries from above:

| structure (SMILES) | PAMPA (10^-6 cm/s) |
|---|---|
| CC(C)C[C@@H]1C(=O)N[C@@H](Cc2ccccc2)C(=O)N(C)[C@@H](C)C(=O)N[C@H](CC(C)C)C(=O)N(Cc2ccccc2)CC(=O)N2CCC[C@@H]2C(=O)N1C | 4.5 |
| CCCN1CC(=O)N(C)[C@H](CC(C)C)C(=O)N[C@H](CC(C)C)C(=O)N2CCC[C@H]2C(=O)N(Cc2ccccc2)CC(=O)N[C@@H](Cc2ccccc2)C(=O)N2CCC[C@H]2C1=O | 6.2 |

Source: CycPeptMPDB (Li et al. 2023), which took these values from Townsend et al. 2020, doi:10.26434/chemrxiv.13335941.v1.